Experimental data taken from ChEMBL document CHEMBL4376815, “The Development Process for Discovery and Clinical Advancement of Modern Antimalarials” (J Med Chem, 2019).

Chains of the proteins cited; added tags and fusions are not shown.
UniProt P08684, whole entry: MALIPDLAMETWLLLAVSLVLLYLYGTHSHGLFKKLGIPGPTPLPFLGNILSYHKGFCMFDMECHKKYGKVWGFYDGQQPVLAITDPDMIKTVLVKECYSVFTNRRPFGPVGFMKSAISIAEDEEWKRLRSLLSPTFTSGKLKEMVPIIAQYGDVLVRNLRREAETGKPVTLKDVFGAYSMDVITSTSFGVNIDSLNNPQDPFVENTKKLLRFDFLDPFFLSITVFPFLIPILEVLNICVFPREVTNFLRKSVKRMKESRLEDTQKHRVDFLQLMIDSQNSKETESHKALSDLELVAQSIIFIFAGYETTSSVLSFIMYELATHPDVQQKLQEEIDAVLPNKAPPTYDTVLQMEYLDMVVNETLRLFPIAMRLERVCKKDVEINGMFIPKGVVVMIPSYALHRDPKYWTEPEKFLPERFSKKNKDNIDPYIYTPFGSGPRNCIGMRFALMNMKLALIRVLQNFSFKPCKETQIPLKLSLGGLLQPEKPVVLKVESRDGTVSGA

Target: Cytochrome P450 3A4 (Homo sapiens, UniProt P08684)
Assay: Inhibition of CYP3A4 (unknown origin)
Type: ADME

- Ki: 156 nM
Structure (SMILES): CC1(C)c2nc(-c3ccc(F)cc3)c(Nc3ccc(F)cc3)n2CCN1C(=O)CN [GANAPLACIDE]
